Experiment: Solubility of insulin and macromolecular insulin complex under various conditions

## insulin
pH = 3
  Solubility: Soluble
pH = 7
  Solubility: Insoluble
pH = 7, phosphate buffer
  Solubility: Insoluble

From patent publication US6063370A, “Macromolecular complexes for drug delivery” (The Board of Trustees of the University of Illinois, priority 1998, dated 2000)
